The results in this text go back to PubChem BioAssay AID1978 (The Scripps Research Institute Molecular Screening Center, 2009).

The list shows a part of the results, in another mix than the full data. The source made the active and inactive calls.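 Rule for the calls: active = inhibition above a limit from the primary screen, the mean over all compounds plus 3 SD (cut at about 19% in these data); inactive = the rest.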

In this assay the test system is Fam108b (Abhd17b) serine hydrolase [Mus musculus]. Kind of assay: mouse Fam108b serine hydrolase inhibitors, confirmation, counter-screen for RBBP9 inhibitor project, biochemical, fluorescence polarization, triplicate (AID 1978).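 Note: 0% = median of active Fam108b wells and 100% = catalytically dead S170A mutant; inhibitors free the probe so polarization falls as inhibition rises.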 The settings on record: recombinant Fam108b, FP-Rh probe fluorescence polarization; at 9.51 µM; hits give high values.
`Nc1cccc2c([As](=O)(O)O)cccc12`: the inhibition – broadly, the change of the read-out against control, counted positive when it falls – was inactive: -0.23%.

`C[N+]1=C2C=CC=CC=C2SC12C([N+](=O)[O-])=CC([N+](=O)[O-])=C[C-]2[N+](=O)[O-]` (centres undefined): the inhibition is inactive: 15.8%. Consider `CN(C)C(=O)c1cc([N+](=O)[O-])cc2c1-c1c(cc([N+](=O)[O-])cc1[N+](=O)[O-])C2=O`, for which the inhibition was active: 42.5%. As to `O=[N+]([O-])c1cc([N+](=O)[O-])c(CCN2CCOCC2)c([N+](=O)[O-])c1`, the inhibition is active: 28.5%.
